Results reported in PubChem BioAssay (Tox21).
Values joined by “and” are separate entries in the source; they are usually repeats but may differ in a detail not shown here. Equal values may be shown once. The entries are a selection whose mix differs from that of the whole data set. Inconclusive results are not listed. Active and inactive are the calls of the source. Unless noted, calls come from the whole dose curve; as a rule, active = well fitted curve in the direction sought with a large enough effect in the repeat runs; inconclusive = weak or mixed curves; inactive = no such curve, though single readings can be large; an effect the other way counts as inactive or inconclusive.

Tests used:
[1] = qHTS assay for small molecule agonists of the p53 signaling pathway (AID 651631; calls by dose curve; note: nearly all actives have a fitted effect of over 15% in size); conditions: HCT-116 p53RE-bla reporter, beta-lactamase FRET ratio, 16 h; at 73.3 µM (top of the series) unless noted
Summary of the method: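 HCT-116 p53RE-bla reporter line, 16 h compound treatment at 37 °C, then fluorescence after 2 h with B/G FRET substrate.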

[2] = qHTS assay for small molecule agonists of the p53 signaling pathway - cell viability (AID 651633; calls by dose curve; note: nearly all actives have a fitted effect of over 30% in size); conditions: p53RE-bla HCT-116 viability, ATP luminescence, 16 h; at 83.3 µM (top of the series) unless noted
Summary of the method: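 p53RE-bla cells, seeded at 4,000 per well and rested 5 h at 37 C/5% CO2, received compounds in DMSO for 16 h at 37 C. CellTiter-Glo was then added, and luminescence was read after 30 min at room temperature to gauge cytotoxicity.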

[3] = qHTS assay for small molecules that induce genotoxicity in human embryonic kidney cells expressing luciferase-tagged ATAD5 - cell viability (AID 651634; calls by dose curve; note: nearly all actives have a fitted effect of over 25% in size; note: potency is the fitted concentration of half-maximal effect)
Summary of the method: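 Cytotoxicity counter-readout: after 15.5 hr compound treatment at 37C, live-cell protease activity in ATAD5-luciferase HEK293T cells measured by CellTiter-Fluor fluorescence, 30 min development at 37C.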

[4] = qHTS assay for small molecule disruptors of the mitochondrial membrane potential - cell viability (AID 720634; calls by dose curve; note: nearly all actives have a fitted effect of over 20% in size; note: potency is the fitted concentration of half-maximal effect;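 for activity change, negative = cytotoxicity: human HepG2 liver cancer cells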)
Summary of the method: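 Cytotoxicity was quantified from ATP content by CellTiter-Glo luminescence in the same wells as the MMP dye read-out. HepG2 (2,000 cells/well) were plated overnight and exposed to compounds for 1 hr at 37 C.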

[5] = qHTS assay to test for compound auto fluorescence at 535 nm (green) in HepG2 cells (AID 720675); conditions: green autofluorescence 485/535 nm, 1 h; at 91.3 µM (top of the series) unless noted
[6] = qHTS assay to test for compound auto fluorescence at 460 nm (blue) in HEK293 cells (AID 720678); conditions: blue autofluorescence 405/460 nm; at 91.3 µM (top of the series) unless noted
Summary of the method: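 Blue-channel (Ex/Em 405/460 nm) intensity measured in HEK293 cultures after overnight compound exposure at 37C; signal expressed relative to triamterene. Cells plated 2,000 per well in 10% dialyzed FBS medium and allowed 4-5 hr to attach.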

[7] = qHTS assay to test for compound auto fluorescence at 590 nm (red) in HEK293 cells (AID 720679); conditions: red autofluorescence 540/590 nm; at 91.3 µM (top of the series) unless noted
Summary of the method: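 Red-channel autofluorescence (Ex/Em 540/590 nm; Rose Bengal sodium reference) was measured after overnight 37C, 5% CO2 exposure of attached HEK293 cells, 2,000 per well in medium with 10% dialyzed FBS.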

[8] = qHTS assay to test for compound auto fluorescence at 535 nm (green) in HEK293 cells (AID 720680); conditions: green autofluorescence 485/535 nm; at 91.3 µM (top of the series) unless noted
[9] = qHTS assay to test for compound auto fluorescence at 460 nm (blue) in HEK293 cell free culture (AID 720681); conditions: cell-free medium, autofluorescence 405/460 nm (blue); at 91.3 µM (top of the series) unless noted
Summary of the method: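 Test compounds were pinned into cell-free culture medium (DMEM with 10% FBS) and fluorescence was read directly at Ex/Em 405/460 nm. Signals were expressed as fluorescence equivalents of triamterene, with DMSO vehicle as control.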

[10] = qHTS assay for small molecule disruptors of the mitochondrial membrane potential (AID 720635); note: potency is the fitted concentration of half-maximal effect
% is set by controls: 0 for no effect and ±100 for the full control effect.

SMILES | activation [1] | activity change, negative = cytotoxicity [2] | Potency [3] | Potency [4] | fluorescence, % of fluorescein control [5] | fluorescence, % of triamterene [6] | fluorescence, % of fluorescent control [7] | fluorescence, % of fluorescein [8] | fluorescence, % of fluorescent control [9] | Potency [10]
CN(C(=O)Cc1cccc2occc12)[C@H]1CC[C@@]2(CCCO2)C[C@@H]1N1CCCC1 | inactive: -1.64% | inactive: 4.09% | inactive | inactive | inactive: 0.0081% | inactive: 0.0146% | inactive: 0.0379% | inactive: 0.118% | inactive: 0.0387% | –
Cc1cc([N+](=O)[O-])cc([N+](=O)[O-])c1O | – | – | – | active: 4.33 µM and active: 1.72 µM | inactive: -0.0232% and inactive: -0.342% | inactive: -0.976% and inactive: -1.02% | inactive: -0.0056% and inactive: -1.15% | inactive: -0.143% and inactive: -0.398% | inactive: -1.32% and inactive: -1.31% | active: 686 nM and active: 609 nM
ClP(Cl)c1ccccc1 | inactive: 0.377% | inactive: -11.4% | inactive | inactive | inactive: 0.0108% | inactive: -0.207% | inactive: -0.327% | inactive: 0.0754% | inactive: -0.0892% | –
O=[As]c1ccccc1 (stereo not drawn) | – | – | active: 0.864 µM | – | inactive: -0.0071% | inactive: 0.108% | inactive: -0.13% | inactive: 0.0008% | inactive: -0.0451% | active: 686 nM
CN(C(=O)Cc1ccc(Cl)c(Cl)c1)[C@H]1CC[C@@]2(CCCO2)C[C@@H]1N1CCCC1 | – | inactive: 12% | inactive | inactive | inactive: 0.203% [at 46 µM] | inactive: 0.025% [at 46 µM] | inactive: -0.183% [at 46 µM] | inactive: 0.0277% [at 46 µM] | inactive: 0.165% [at 46 µM] | inactive
CCNC(C)Cc1ccc2c(c1)OCO2 (stereo not drawn) | – | inactive: 24.6% [at 95.3 µM] | inactive | inactive | inactive: 0.0123% [at 95.7 µM] | inactive: -0.0733% [at 95.7 µM] | inactive: 0% [at 95.7 µM] | inactive: -0.0147% [at 95.7 µM] | inactive: 0.111% [at 95.7 µM] | inactive
O=C(OC1CN2CCC1CC2)c1ccccc1 (stereo not drawn) | inactive: -3.02% | inactive: 20.5% | inactive | inactive | inactive: -0.017% [at 46 µM] | inactive: -0.0293% [at 46 µM] | inactive: 0.135% [at 46 µM] | inactive: 0.0549% [at 46 µM] | inactive: -0.22% [at 46 µM] | inactive
CN(N=O)C(=N)N[N+](=O)[O-] | – | inactive: 18.2% | inactive | inactive | inactive: 0.0278% | inactive: 0.0363% | inactive: -0.258% | inactive: -0.0339% | inactive: -0.0522% | –
CC(C)CCCCCCCOP(OCCCCCCCC(C)C)Oc1ccccc1 | inactive: -3.37% | inactive: -15% | inactive | inactive | inactive: -0.0113% | inactive: 0.158% | inactive: 0.0377% | inactive: -0.129% | inactive: -0.249% | –
CCOP(=S)(CC)Sc1ccccc1 (stereo not drawn) | inactive: -1.45% | inactive: 12.5% | inactive | inactive | inactive: -0.0265% | inactive: 0.0095% | inactive: 0.108% | inactive: -0.0321% | inactive: -0.149% | –
CCCCC(CC)CO[P+](=O)OCC(CC)CCCC (stereo not drawn) | – | inactive: 17.3% | inactive | inactive | inactive: -0.0242% | inactive: 0.0368% | inactive: -0.0304% | inactive: 0.0122% | inactive: -0.0171% | inactive
N#CSc1ccc([N+](=O)[O-])cc1[N+](=O)[O-] | – | – | – | – | inactive: -0.194% | inactive: -0.523% | inactive: -0.124% | inactive: -0.187% | inactive: -0.549% | –
O=C1C2CC=CCC2C(=O)N1SC(Cl)(Cl)C(Cl)Cl (stereo not drawn) | – | – | – | – | inactive: 0.0917% and inactive: -0.0077% | inactive: 0.142% and inactive: 0.255% | inactive: -0.366% and inactive: 0.101% | inactive: -0.0568% and inactive: 0.0242% | inactive: 0.0036% and inactive: 0.269% | –
O=[p+]1oc2ccccc2c2ccccc21 (stereo not drawn) | – | inactive: 5.45% | inactive | inactive | inactive: -0.016% | inactive: -0.129% | inactive: 0.0921% | inactive: 0.114% | inactive: 0.0106% | –
